Test results from US20110288485A1, “MICRONEEDLE DEVICE” (HISAMITSU PHARMACEUTICAL CO., INC., priority 2008, published 2011).

Legend:
[1] = Hairless rat in vivo absorption test by microneedles (follicle-stimulating hormone)
Protocol: Using a total of four types of microneedles, namely microneedles made of a polylactic acid having a density of 841 needles/cm^2 and a length of the needle part of 300 μm and three types of microneedles made of a polylactic acid that has a density of 400 needles/cm^2 in common but differ in the length of the needle part (h: 300 μm, 400 μm, and 500 μm), a hairless rat in vivo absorption test was conducted. The shape of any of these four types of microneedles is square pyramid, and the area of each microneedle device was 1 cm^2.
Firstly, the abdomen of a hairless rat was pierced with a microneedle device in which tips of the needles were coated with a similar coating liquid to Example 1 (30% FSH, 15% pullulan) by a similar technique to Example 1 by hand pushing. Then, plasma was collected over time (amount of blood collected: 300 μL/time) to measure the FSH concentration with a SPAC-S FSH kit (the product of TFB, Inc.) Also, in a subcutaneous administration group, 300 μL of 1 IU/mL FSH (physiological saline solution) was subcutaneously administered to the back of a hairless rat and the FSH concentration was similarly measured. It is to be noted that the time of attachment of the microneedle device was set at two hours.

[2] = Amount of FSH coated on microneedles (Example 1); format: physicochemical; details: coating liquid 30% follicle-stimulating hormone, 15% pullulan
Protocol: A liquid obtained by adding 26.4 μL of [^125I]FSHaq concentrated 10-fold with Biomax (molecular weight fraction: 10,000), 14.4 mg of Cold FSH (the product of ProSpec-TechnoGene Ltd), and 7.2 mg of pullulan into an Eppendorf tube and dissolving the content by centrifugation was provided as a coating liquid (30% follicle-stimulating hormone, 15% pullulan). The coating liquid thus obtained (30% follicle-stimulating hormone, 15% pullulan) was coated on the microneedle device by the aforementioned coating method (metal mask standard: one side of an aperture 220 μm, thickness 100 μm, and humidity at room temperature 85% RH or more). Subsequently, after piercing excised human skin with the microneedle device thus coated by finger pressing (2 kg/patch), the device and the skin were placed on an acrylic cell for sampling over time. As a receptor layer, phosphate buffered saline (PBS) was used, and after mixing and stirring 1 mL of a receptor liquid obtained per sampling time and acetonitrile at 1:1 and centrifuging this mixture (15,000 rpm, 5° C., 5 min), a supernatant was collected and an FSH concentration was measured by a γ-counter as described below. […]
An amount of coating was calculated by using a microneedle device to which 1 to 5 μL of 10 times concentrated [^125I]FSHaq was added dropwise as a calibration curve by a γ-counter and a NaI counter. […]

follicle-stimulating hormone [FSH]
effect of microneedle density on amount of FSH administered ([1]; length 300 μm, 841 vs 400 needles/cm^2): did not cause changes in the amount of FSH administered very much
initial rise in the blood FSH concentration ([1]; microneedle device vs subcutaneous administration): faster than subcutaneous administration
efficiency of FSH administration by length of the microneedle (plasma FSH) ([1]; microneedle length 300, 400, 500 μm, 400 needles/cm^2, attachment two hours): 300 μm<400 μm<500 μm
amount of FSH coated on the microneedles [2]: approximately 30 μg
